Laboratory results reported in patent US20260226037A1, “MICROTUBULE TARGETING AGENTS” (ARIEL SCIENTIFIC INNOVATIONS LTD., priority 2022, published 2026).

Tested on: MM1.R cells
Assay: XTT cytotoxicity, MM1.R
Format: cell-based
Conditions: MM1.R / MM1.S
Description: The cytotoxic activity of the novel family was evaluated against various tumor cells, including myeloma cells, acute lymphoblastic leukemia cells, acute monocytic leukemia cells, chronic myelogenous leukemia cells, pancreatic cancer cells, breast cancer cells, uterine sarcoma cells, cervix adenocarcinoma cells, ovary cancer cells, melanoma cells, osteosarcoma cells, prostate cancer cells, lung cancer cells, neuroblastoma cells and colorectal adenocarcinoma cells by XTT assay.

Row | Structure (SMILES) | IC50 ratio between resistant and non-resistant cells
1 | CCCCCOC(=O)c1[nH]c2c(c1C)C(=O)CC(c1ccco1)C2 (centres unmarked) [SMS001, reference compound] | 1.095
2 | CCCCCOC(=O)c1[nH]c2c(c1C)C(=O)CC(c1ncco1)C2 (centres unmarked) [SMS077, pentyl 3-methyl-6-(oxazol-2-yl)-4-oxo-4,5,6,7-tetrahydro-1H-indole-2-carboxylate] | 1.091
